Target: Aldo-keto reductase family 1 member B1 (Homo sapiens, UniProt P15121)
Assay: Inhibition of recombinant human AKR1B1 using D,L-glyceraldehyde as substrate

Question: Which IC50 does the source give for `O=C(O)Cc1nn(Cc2nc3cc(C(F)(F)F)ccc3s2)c(=O)c2ccccc12` [ZOPOLRESTAT] here?
Answer: The IC50 was 24.8 nM.

Source: ChEMBL document CHEMBL4177632 (Bioorg Med Chem, 2017)
